The values below come from article PMC8566587, “Selection for constrained peptides that bind to a single target protein” (Nature Communications, 2021).

By UniProt entry, the sequences of proteins in these tests, tags left out. Where a name states a change or a piece, a line headed by the entry shows the natural chain unless it says otherwise.
UniProt Q9X2V7: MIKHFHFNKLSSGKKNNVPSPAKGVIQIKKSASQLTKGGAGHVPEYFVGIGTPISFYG

In test [1] the test system is Mdm2*. The format is cell-based.
The subject of test [2] is Escherichia coli RNA polymerase. Particulars: read-out: binding to its target; cited from earlier work.
The conditions of test [3]: read-out: binding to its target; cited from earlier work.

Values joined by “and” are separate entries in the source; they are usually repeats but may differ in a detail not shown here. Equal entries are not always repeated.

With TSFAEYWNLLSP [PMI], the mean_mdm2 in test [1] was 2682.43 and 4379.99. Turning to “microcin J25 (GGAGHVPEYFVGIGTPISFYG; Microcin J25; UniProt Q9X2V7 38-58, looked up)”, the Kd in test [2] is 2000 nM.

vancomycin: in test [3], the Kd is roughly 1000 nM.
